Laboratory results taken from ChEMBL document CHEMBL1765051, “Crystal structure of tert-butyldimethylsilyl-spiroaminooxathioledioxide-thymine (TSAO-T) in complex with HIV-1 reverse transcriptase (RT) redefines the elastic limits of the non-nucleoside inhibitor-binding pocket” (J Med Chem, 2011).

Target: Human immunodeficiency virus type 1 reverse transcriptase (Human immunodeficiency virus 1, UniProt Q72547)
Assay: Inhibition of wild type HIV-1 reverse transcriptase-mediated polymerization reaction after 30 mins
How it was run: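 Wild-type RT added to start the reaction with poly(rC)/oligo(dG) (0.1 mM) and 2.8 μM [3H]dGTP (2 μCi/assay). Buffer: 50 mM Tris-HCl pH 7.8, 5 mM DTT, 300 mM glutathione, 0.5 mM EDTA, 150 mM KCl, 5 mM MgCl2, BSA, 0.06% Triton X-100. Incubated 30 min at 37°C, then TCA-precipitated. Acid-insoluble radioactivity counted. IC50 is 50% polymerization inhibition, mean ± SD of ≥2 independent experiments.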

## Cc1cn([C@@H]2O[C@H](CO[Si](C)(C)C(C)(C)C)[C@@]3(OS(=O)(=O)C=C3N)[C@H]2O[Si](C)(C)C(C)(C)C)c(=O)[nH]c1=O
  IC50: 1.2 µM
